The results in this text go back to US20140100156A1 (SANOFI, priority 2012, published 2014).

Protein sequences, listed by entry. Tags and fused reporters are not part of them. Residues count along the entry.
UniProt P43220, 24-463: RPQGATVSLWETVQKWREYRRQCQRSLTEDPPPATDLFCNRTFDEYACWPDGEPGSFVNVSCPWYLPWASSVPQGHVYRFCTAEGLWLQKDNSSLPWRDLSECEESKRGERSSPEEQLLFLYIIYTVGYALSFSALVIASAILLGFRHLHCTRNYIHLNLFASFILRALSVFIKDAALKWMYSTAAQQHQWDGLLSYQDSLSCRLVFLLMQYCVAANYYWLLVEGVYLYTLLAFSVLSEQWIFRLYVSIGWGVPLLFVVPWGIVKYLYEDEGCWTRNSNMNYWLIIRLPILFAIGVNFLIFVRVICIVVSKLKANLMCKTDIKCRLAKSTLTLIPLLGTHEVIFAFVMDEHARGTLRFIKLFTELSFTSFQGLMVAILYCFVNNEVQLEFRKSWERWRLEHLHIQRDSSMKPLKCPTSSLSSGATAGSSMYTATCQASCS
UniProt P47871, 26-477: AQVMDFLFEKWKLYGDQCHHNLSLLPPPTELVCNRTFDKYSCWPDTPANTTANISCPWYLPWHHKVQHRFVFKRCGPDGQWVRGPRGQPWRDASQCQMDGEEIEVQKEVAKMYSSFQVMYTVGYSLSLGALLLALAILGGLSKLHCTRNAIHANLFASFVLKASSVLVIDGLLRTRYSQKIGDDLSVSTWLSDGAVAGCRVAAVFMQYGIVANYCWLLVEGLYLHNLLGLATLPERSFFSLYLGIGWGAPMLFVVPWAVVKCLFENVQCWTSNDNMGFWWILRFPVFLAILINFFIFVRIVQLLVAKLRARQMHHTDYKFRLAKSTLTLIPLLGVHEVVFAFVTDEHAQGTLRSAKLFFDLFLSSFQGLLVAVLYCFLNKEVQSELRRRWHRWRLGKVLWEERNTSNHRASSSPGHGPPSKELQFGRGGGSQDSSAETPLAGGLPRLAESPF

Where two headings read alike, the source gives them in different places.

Assay [1] addresses T1, human GLP-1 receptor (Homo sapiens, UniProt P43220).
T1 construct: expressed in transfected cells; host or cells: HEK-293
In words: cAMP response (HTRF) of HEK-293 cells stably expressing human GLP-1 receptor. The format is cell-based. Particulars: read-out: EC50 hGLP-1R. For orientation: TR-FRET usually uses a lanthanide donor and a delayed reading to cut background.

Assay [2] deals with T2, human glucagon receptor (Homo sapiens, UniProt P47871).
T2 construct: expressed in transfected cells; host or cells: HEK-293
In words: cAMP response (HTRF) of HEK-293 cells stably expressing human glucagon receptor. The format is cell-based. To be noted: read-out: EC50 hGlucagon-R.

Setting [3] is: Table 8, comparison testing of position 14.

Usually EC50 stands for the concentration needed to bring the measured effect to its halfway point. Consider `CCCCCCCCCCCCCCCC(=O)N[C@@H](CCC(=O)NCCCC[C@H](NC(=O)[C@H](CCC(N)=O)NC(=O)[C@H](CCCCN)NC(=O)[C@H](CO)NC(=O)[C@H](CC(C)C)NC(=O)[C@H](CC(=O)O)NC(=O)[C@H](CO)NC(=O)[C@@H](NC(=O)[C@H](Cc1ccccc1)NC(=O)[C@@H](NC(=O)CNC(=O)[C@H](CCC(N)=O)NC(=O)[C@@H](CO)NC(=O)[C@@H](N)Cc1c[nH]cn1)[C@@H](C)O)[C@@H](C)O)C(=O)N[C@@H](CCC(=O)O)C(=O)N[C@@H](CO)C(=O)N[C@@H](CCC(N)=O)C(=O)N[C@@H](C)C(=O)N[C@@H](C)C(=O)N[C@@H](CCC(N)=O)C(=O)N[C@@H](CCC(=O)O)C(=O)N[C@@H](Cc1ccccc1)C(=O)N[C@H](C(=O)N[C@@H](CCC(=O)O)C(=O)N[C@@H](Cc1c[nH]c2ccccc12)C(=O)N[C@@H](CC(C)C)C(=O)N[C@@H](CCCCN)C(=O)N[C@@H](C)C(=O)NCC(=O)NCC(=O)N1CCC[C@H]1C(=O)N[C@@H](CO)C(=O)N[C@@H](CO)C(=O)NCC(=O)N[C@@H](C)C(=O)N1CCC[C@H]1C(=O)N1CCC[C@H]1C(=O)N1CCC[C@H]1C(=O)N[C@@H](CO)C(N)=O)[C@@H](C)CC)C(=O)O` [compound 37], for which the half-maximal effective concentration (EC50) came out at 1.5 pM in assay [1] (Table 5, cAMP, HEK-293) and 12.9 pM in assay [2] (Table 5, cAMP, HEK-293).

For `CCCCCCCCCCCCCCCC(=O)N[C@@H](CCC(=O)NCCCC[C@H](NC(=O)[C@H](CCC(N)=O)NC(=O)[C@H](CCCCN)NC(=O)[C@H](CO)NC(=O)[C@H](CC(C)C)NC(=O)[C@H](CC(=O)O)NC(=O)[C@H](CO)NC(=O)[C@@H](NC(=O)[C@H](Cc1ccccc1)NC(=O)[C@@H](NC(=O)CNC(=O)[C@H](CCC(N)=O)NC(=O)[C@@H](CO)NC(=O)[C@@H](N)Cc1c[nH]cn1)[C@@H](C)O)[C@@H](C)O)C(=O)N[C@@H](CC(=O)O)C(=O)N[C@@H](CO)C(=O)N[C@@H](CCCNC(=N)N)C(=O)N[C@@H](CCCNC(=N)N)C(=O)N[C@@H](C)C(=O)N[C@@H](CCC(N)=O)C(=O)N[C@@H](CC(=O)O)C(=O)N[C@@H](Cc1ccccc1)C(=O)N[C@H](C(=O)N[C@@H](CCC(=O)O)C(=O)N[C@@H](Cc1c[nH]c2ccccc12)C(=O)N[C@@H](CC(C)C)C(=O)N[C@@H](CCCCN)C(=O)N[C@@H](CC(N)=O)C(=O)NCC(=O)NCC(=O)N1CCC[C@H]1C(=O)N[C@@H](CO)C(=O)N[C@@H](CO)C(=O)NCC(=O)N[C@@H](C)C(=O)N1CCC[C@H]1C(=O)N1CCC[C@H]1C(=O)N1CCC[C@H]1C(=O)N[C@@H](CO)C(=O)NCC(F)(F)F)[C@@H](C)CC)C(=O)O` [compound 103], the EC50 worked out at 10.1 pM in assay [1] (Table 5, cAMP, HEK-293) and 1.7 pM in assay [2] (Table 5, cAMP, HEK-293).

On to `CCCCCCCCCCCCCCCC(=O)N[C@@H](CCC(=O)NCCCC[C@H](NC(=O)[C@H](CCC(N)=O)NC(=O)[C@H](CCCCN)NC(=O)[C@H](CO)NC(=O)[C@H](CC(C)C)NC(=O)[C@H](CC(=O)O)NC(=O)[C@H](CO)NC(=O)[C@@H](NC(=O)[C@H](Cc1ccccc1)NC(=O)[C@@H](NC(=O)CNC(=O)[C@H](CCC(N)=O)NC(=O)[C@@H](CO)NC(=O)[C@@H](N)Cc1c[nH]cn1)[C@@H](C)O)[C@@H](C)O)C(=O)N[C@@H](CC(=O)O)C(=O)N[C@@H](CCC(=O)O)C(=O)N[C@@H](CCCNC(=N)N)C(=O)N[C@@H](CCCNC(=N)N)C(=O)N[C@@H](C)C(=O)N[C@@H](CCCCN)C(=O)N[C@@H](CC(=O)O)C(=O)N[C@@H](Cc1ccccc1)C(=O)N[C@H](C(=O)N[C@@H](CCC(=O)O)C(=O)N[C@@H](Cc1c[nH]c2ccccc12)C(=O)N[C@@H](CC(C)C)C(=O)N[C@@H](CCCCN)C(=O)N[C@@H](CC(N)=O)C(=O)NCC(=O)NCC(=O)N1CCC[C@H]1C(=O)N[C@@H](CO)C(=O)N[C@@H](CO)C(=O)NCC(=O)N[C@@H](C)C(=O)N1CCC[C@H]1C(=O)N1CCC[C@H]1C(=O)N1CCC[C@H]1C(=O)N[C@@H](CO)C(N)=O)[C@@H](C)CC)C(=O)O` [compound 87], for which the EC50 worked out at 3 pM in assay [1] (Table 5, cAMP, HEK-293) and 1.3 pM in assay [2] (Table 5, cAMP, HEK-293).

Take `CC[C@H](C)[C@H](NC(=O)[C@H](Cc1ccccc1)NC(=O)[C@H](CC(=O)O)NC(=O)[C@H](CCC(N)=O)NC(=O)[C@H](C)NC(=O)[C@H](CCCNC(=N)N)NC(=O)[C@H](CCCNC(=N)N)NC(=O)[C@H](CO)NC(=O)[C@H](CC(=O)O)NC(=O)[C@H](CCSC)NC(=O)[C@H](CCC(N)=O)NC(=O)[C@H](CCCCN)NC(=O)[C@H](CO)NC(=O)[C@H](CC(C)C)NC(=O)[C@H](CC(=O)O)NC(=O)[C@H](CO)NC(=O)[C@@H](NC(=O)[C@H](Cc1ccccc1)NC(=O)[C@@H](NC(=O)CNC(=O)[C@H](CCC(N)=O)NC(=O)[C@@H](CO)NC(=O)[C@@H](N)Cc1c[nH]cn1)[C@@H](C)O)[C@@H](C)O)C(=O)N[C@@H](CCC(=O)O)C(=O)N[C@@H](Cc1c[nH]c2ccccc12)C(=O)N[C@@H](CC(C)C)C(=O)N[C@@H](CCCCN)C(=O)N[C@@H](CCCCN)C(=O)NCC(=O)NCC(=O)N1CCC[C@H]1C(=O)N[C@@H](CO)C(=O)N[C@@H](CO)C(=O)NCC(=O)N[C@@H](C)C(=O)N1CCC[C@H]1C(=O)N1CCC[C@H]1C(=O)N1CCC[C@H]1C(=O)N[C@@H](CO)C(N)=O` [compound 186]: the EC50 in assay [1] (setting [3]) worked out at 102 pM; in assay [2] (setting [3]) it was 590 pM.

For the compound `CC[C@H](C)[C@H](NC(=O)[C@H](Cc1ccccc1)NC(=O)[C@H](CC(C)C)NC(=O)[C@H](CCCNC(=N)N)NC(=O)[C@H](C)NC(=O)[C@H](C)NC(=O)[C@H](CCC(=O)O)NC(=O)[C@H](CCC(=O)O)NC(=O)[C@H](CCC(=O)O)NC(=O)[C@H](CC(C)C)NC(=O)[C@H](CCC(N)=O)NC(=O)[C@H](CCCCN)NC(=O)[C@H](CO)NC(=O)[C@H](CC(C)C)NC(=O)[C@H](CC(=O)O)NC(=O)[C@H](CO)NC(=O)[C@@H](NC(=O)[C@H](Cc1ccccc1)NC(=O)[C@@H](NC(=O)CNC(=O)[C@H](CCC(N)=O)NC(=O)C(C)(C)NC(=O)[C@@H](N)Cc1c[nH]cn1)[C@@H](C)O)[C@@H](C)O)C(=O)N[C@@H](CCC(=O)O)C(=O)N[C@@H](Cc1c[nH]c2ccccc12)C(=O)N[C@@H](CC(C)C)C(=O)N[C@@H](CCCCN)C(=O)N[C@@H](C)C(=O)NCC(=O)NCC(=O)N1CCC[C@H]1C(=O)N[C@@H](CO)C(=O)N[C@@H](CO)C(=O)NCC(=O)N[C@@H](C)C(=O)N1CCC[C@H]1C(=O)N1CCC[C@H]1C(=O)N1CCC[C@H]1C(=O)N[C@@H](CO)C(N)=O` [compound 225], the concentration for a half-maximal effect (EC50) in assay [2] (setting [3]) stood at 2870 pM.

As to `CCCCCCCCCCCCCCCCCC(=O)N[C@@H](CCC(=O)NCCCC[C@H](NC(=O)[C@H](CCC(N)=O)NC(=O)[C@H](CCCCN)NC(=O)[C@H](CO)NC(=O)[C@H](CC(C)C)NC(=O)[C@H](CC(=O)O)NC(=O)[C@H](CO)NC(=O)[C@@H](NC(=O)[C@H](Cc1ccccc1)NC(=O)[C@@H](NC(=O)CNC(=O)[C@H](CCC(N)=O)NC(=O)[C@@H](CO)NC(=O)[C@@H](N)Cc1c[nH]cn1)[C@@H](C)O)[C@@H](C)O)C(=O)N[C@@H](CCC(=O)O)C(=O)N[C@@H](CO)C(=O)N[C@@H](CCCCN)C(=O)N[C@@H](C)C(=O)N[C@@H](C)C(=O)N[C@@H](CCC(N)=O)C(=O)N[C@@H](CC(C)C)C(=O)N[C@@H](Cc1ccccc1)C(=O)N[C@H](C(=O)N[C@@H](CCC(=O)O)C(=O)N[C@@H](Cc1c[nH]c2ccccc12)C(=O)N[C@@H](CC(C)C)C(=O)N[C@@H](CCCCN)C(=O)N[C@@H](C)C(=O)NCC(=O)NCC(=O)N1CCC[C@H]1C(=O)N[C@@H](CO)C(=O)N[C@@H](CO)C(=O)NCC(=O)N[C@@H](C)C(=O)N1CCC[C@H]1C(=O)N1CCC[C@H]1C(=O)N1CCC[C@H]1C(=O)N[C@@H](CO)C(N)=O)[C@@H](C)CC)C(=O)O` [compound 27], the EC50 in assay [2] (Table 5, cAMP, HEK-293) amounted to 25.1 pM.
